Target: human CXCR4 (hCXCR4) (Homo sapiens, UniProt P61073)
Test: Competitive binding to hCXCR4 (IC50), Jurkat cells, [^125I]FC-131 as radioligand
Conditions: [^125I]FC-131 radioligand

Protein sequences, listed by entry. Tags and fused reporters are not part of them.
UniProt P61073, whole entry: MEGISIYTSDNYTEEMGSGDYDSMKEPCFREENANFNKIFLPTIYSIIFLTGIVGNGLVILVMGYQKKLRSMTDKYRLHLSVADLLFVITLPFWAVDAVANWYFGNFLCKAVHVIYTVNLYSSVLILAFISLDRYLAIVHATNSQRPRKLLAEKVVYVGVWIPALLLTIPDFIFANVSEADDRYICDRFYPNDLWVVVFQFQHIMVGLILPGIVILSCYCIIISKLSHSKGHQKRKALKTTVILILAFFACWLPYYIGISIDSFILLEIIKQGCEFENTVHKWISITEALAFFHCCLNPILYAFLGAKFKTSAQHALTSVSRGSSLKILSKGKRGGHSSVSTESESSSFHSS

In the case of `CN1C(=O)[C@@H](Cc2ccc(O)c(I)c2)NC(=O)CNC(=O)[C@H](Cc2ccc3ccccc3c2)NC(=O)[C@H](CCCNC(=N)N)NC(=O)[C@H]1CCCNC(=O)c1ccc(CNC(=O)CN2CCN(CC(=O)O)CCN(CC(=O)O)CCN(CC(=O)O)CC2)cc1` [^natLu-PentixaTher, metal not drawn, reference compound], the IC50 is reported as 14.6 ± 1 nM.

— PMC10611619, “[^99mTc]Tc-PentixaTec: development, extensive pre-clinical evaluation, and first human experience” (European Journal of Nuclear Medicine and Molecular Imaging, 2023)
